Assay results reported in patent publication US6242173A, “Immunoassays for catalytically-active, serine proteases” (University of Vermont and State Agriculatural College, priority 1992, dated 2001).

Sequences of proteins named here, by UniProt entry; tags and fusion partners are left off. Residues count along the entry.
UniProt P00743, 41-180 partner limits assumed: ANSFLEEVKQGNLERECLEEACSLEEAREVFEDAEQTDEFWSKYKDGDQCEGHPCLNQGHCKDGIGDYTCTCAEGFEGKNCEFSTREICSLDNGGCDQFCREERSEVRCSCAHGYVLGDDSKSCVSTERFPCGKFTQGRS
UniProt P00743, 234-492 limits assumed: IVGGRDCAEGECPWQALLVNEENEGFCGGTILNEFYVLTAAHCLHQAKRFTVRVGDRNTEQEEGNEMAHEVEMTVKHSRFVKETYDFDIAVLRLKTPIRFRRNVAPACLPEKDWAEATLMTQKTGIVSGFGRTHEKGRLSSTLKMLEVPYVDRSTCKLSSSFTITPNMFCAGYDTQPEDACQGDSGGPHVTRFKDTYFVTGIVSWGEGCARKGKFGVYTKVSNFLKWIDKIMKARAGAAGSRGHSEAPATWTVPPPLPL

Target: factor Xa (Bos taurus, UniProt P00743)
Test: Removal of active enzyme from zymogen with biotinylated chloromethyl ketone and avidin matrix
Conditions: bovine factor X doped with 10% (w/w) factor Xa

Biotinyl-ε-aminocaproyl-L-tyrosylglycyl-L-arginine chloromethyl ketone [BC-YGR-CK]
factor Xa remaining after treatment and avidin matrix: Identical results
